Like-named read-outs stand apart in the source and are kept apart here.
Test system: HLA-A2
Format: binding, Human
[1] = number of the five alleles A*0201, A*0202, A*0203, A*0206, A*6802 bound
[2] = Table 9, peptides derived from not fragmented proteins, number of the five HLA-A2 alleles bound
[3] = Table 11, peptides derived from apoptotic cell-associated proteins, pools 1-4, number of the five HLA-A2 alleles bound
[4] = number of the five alleles A*0201, A*0202, A*0203, A*0206, A*6802 bound, Table 13
[5] = Table 12, peptides derived from apoptotic cell-associated proteins, pools 5-6, number of the five HLA-A2 alleles bound

CC[C@H](C)[C@H](NC(=O)[C@H](CCC(N)=O)NC(=O)[C@H](CC(=O)O)NC(=O)[C@H](CCCCN)NC(=O)[C@H](CC(C)C)NC(=O)[C@H](CC(=O)O)NC(=O)[C@H](CCC(=O)O)NC(=O)[C@H](CC(C)C)NC(=O)[C@@H](N)CC(=O)O)C(=O)O [compound 52]
Alleles bound: 0

CC(C)C[C@H](NC(=O)[C@H](CCCCN)NC(=O)[C@H](C)NC(=O)[C@H](Cc1c[nH]cn1)NC(=O)[C@H](Cc1ccc(O)cc1)NC(=O)[C@@H](NC(=O)[C@H](CCC(N)=O)NC(=O)[C@H](CCC(=O)O)NC(=O)[C@H](CC(C)C)NC(=O)[C@@H](N)CCC(=O)O)[C@@H](C)O)C(=O)O [compound 55]
Alleles bound [1]: 0

CC(C)C[C@H](NC(=O)[C@H](C)NC(=O)[C@H](CCCNC(=N)N)NC(=O)[C@H](CC(C)C)NC(=O)CNC(=O)[C@H](Cc1c[nH]cn1)NC(=O)[C@H](CCCCN)NC(=O)[C@@H](NC(=O)[C@H](CC(C)C)NC(=O)[C@@H](N)CCC(=O)O)C(C)C)C(=O)O [compound 245]
Alleles bound [2]: 3

CC(C)C[C@H](NC(=O)[C@@H](N)CCC(=O)O)C(=O)N[C@H](C(=O)N[C@@H](CCC(=O)O)C(=O)N[C@@H](CC(N)=O)C(=O)NCC(=O)N[C@@H](CCCCN)C(=O)N[C@@H](CCCCN)C(=O)N[C@H](C(=O)O)C(C)C)C(C)C [compound 161]
Alleles bound [1]: 0

CC[C@H](C)[C@H](NC(=O)[C@H](CC(C)C)NC(=O)[C@@H](N)C(C)C)C(=O)NCC(=O)NCC(=O)N[C@@H](CCCCN)C(=O)N1CCC[C@H]1C(=O)N[C@@H](CC(=O)O)C(=O)N[C@@H](CCCNC(=N)N)C(=O)N[C@H](C(=O)O)C(C)C
Alleles bound [3]: 3

CC(C)C[C@H](NC(=O)[C@@H](N)CCCCN)C(=O)N[C@@H](CO)C(=O)N1CCC[C@H]1C(=O)N[C@@H](CO)C(=O)N1CCC[C@H]1C(=O)N[C@@H](CO)C(=O)N[C@@H](CO)C(=O)N[C@@H](CCCNC(=N)N)C(=O)N[C@H](C(=O)O)C(C)C
Alleles bound [3]: 3

CC[C@H](C)[C@H](NC(=O)[C@H](CCC(N)=O)NC(=O)[C@@H](NC(=O)[C@H](CCCCN)NC(=O)[C@H](CO)NC(=O)CNC(=O)[C@@H](NC(=O)[C@H](CC(C)C)NC(=O)[C@@H](N)CO)[C@@H](C)CC)[C@@H](C)O)C(=O)O
Alleles bound [4]: 0

CC[C@H](C)[C@H](N)C(=O)N[C@@H](CC(C)C)C(=O)N[C@@H](CC(C)C)C(=O)N[C@@H](C)C(=O)N[C@@H](CCC(=O)O)C(=O)N[C@@H](CC(C)C)C(=O)N[C@@H](CCC(=O)O)C(=O)N[C@@H](CCC(N)=O)C(=O)N[C@@H](CC(C)C)C(=O)O [compound 201]
Alleles bound: 4

CC[C@H](C)[C@H](NC(=O)[C@H](Cc1ccccc1)NC(=O)[C@H](CCSC)NC(=O)[C@@H](NC(=O)[C@H](Cc1c[nH]cn1)NC(=O)[C@H](CC(N)=O)NC(=O)[C@H](Cc1ccccc1)NC(=O)[C@H](CC(C)C)NC(=O)[C@@H](N)CCC(N)=O)[C@@H](C)O)C(=O)O
Alleles bound [3]: 5

CC(C)C[C@H](NC(=O)[C@H](Cc1cnc[nH]1)NC(=O)[C@H](CCC(=O)O)NC(=O)CNC(=O)[C@H](C)NC(=O)CNC(=O)[C@H](CO)NC(=O)[C@H](CC(C)C)NC(=O)[C@H](CC(C)C)NC(=O)[C@@H](N)Cc1ccc(O)cc1)C(=O)O [compound 84]
Alleles bound [1]: 4

CC[C@H](C)[C@H](NC(=O)[C@H](CCC(=O)O)NC(=O)[C@H](CCC(=O)O)NC(=O)[C@H](CO)NC(=O)[C@H](Cc1ccc(O)cc1)NC(=O)[C@@H](NC(=O)[C@@H]1CCCN1C(=O)[C@H](CC(C)C)NC(=O)[C@@H](N)CC(N)=O)[C@@H](C)CC)C(=O)N[C@H](C(=O)O)C(C)C [compound 177]
Alleles bound [1]: 0

CC[C@H](C)[C@H](NC(=O)[C@H](CO)NC(=O)[C@@H](NC(=O)[C@H](CC(N)=O)NC(=O)[C@H](CCCCN)NC(=O)[C@@H](NC(=O)[C@@H](NC(=O)[C@H](CC(C)C)NC(=O)[C@@H](N)CC(=O)O)[C@@H](C)O)[C@@H](C)O)C(C)C)C(=O)O
Alleles bound [4]: 3

CSCC[C@H](NC(=O)[C@H](CC(C)C)NC(=O)[C@@H](N)CCC(N)=O)C(=O)N[C@@H](C)C(=O)N[C@@H](CCC(=O)O)C(=O)N[C@@H](CCCCN)C(=O)N[C@@H](CC(C)C)C(=O)N[C@@H](CCC(N)=O)C(=O)N[C@@H](CC(C)C)C(=O)O [compound 92]
Alleles bound [1]: 3

CC[C@H](C)[C@H](NC(=O)[C@H](CO)NC(=O)[C@H](CCC(N)=O)NC(=O)[C@H](CC(=O)O)NC(=O)[C@H](CCC(=O)O)NC(=O)[C@H](CCCNC(=N)N)NC(=O)[C@H](CC(=O)O)NC(=O)[C@H](CCC(N)=O)NC(=O)[C@H](CCSC)NC(=O)[C@@H](N)CCSC)C(=O)O
Alleles bound [5]: 2

CC(C)C[C@H](NC(=O)[C@@H](N)CCCCN)C(=O)N[C@@H](CCCNC(=N)N)C(=O)N[C@@H](CCCNC(=N)N)C(=O)NCC(=O)N[C@@H](CC(=O)O)C(=O)N[C@@H](CC(C)C)C(=O)N1CCC[C@H]1C(=O)N[C@@H](Cc1ccccc1)C(=O)N[C@H](C(=O)O)C(C)C
Alleles bound [5]: 4

CC(C)C[C@H](NC(=O)[C@@H](NC(=O)[C@H](CCC(=O)O)NC(=O)[C@H](CCCNC(=N)N)NC(=O)[C@H](CC(C)C)NC(=O)[C@H](C)NC(=O)[C@H](CCCNC(=N)N)NC(=O)[C@H](CC(C)C)NC(=O)CN)[C@@H](C)O)C(=O)O [compound 247]
Alleles bound [2]: 2

CC(C)C[C@H](NC(=O)[C@H](CS)NC(=O)[C@H](CCC(=O)O)NC(=O)[C@@H](NC(=O)[C@H](C)NC(=O)[C@H](CC(=O)O)NC(=O)[C@H](CO)NC(=O)[C@H](CCC(=O)O)NC(=O)[C@H](CC(C)C)NC(=O)[C@@H]1CCCN1)C(C)C)C(=O)O [compound 24]
Alleles bound [1]: 0

CC(C)C[C@H](NC(=O)[C@H](CC(=O)O)NC(=O)[C@@H](NC(=O)[C@H](CC(C)C)NC(=O)[C@H](CC(C)C)NC(=O)[C@H](CC(=O)O)NC(=O)[C@H](CC(=O)O)NC(=O)[C@H](CC(C)C)NC(=O)[C@@H](N)CCC(=O)O)C(C)C)C(=O)O [compound 150]
Alleles bound [1]: 1

CC(C)C[C@H](NC(=O)[C@H](CCCNC(=N)N)NC(=O)[C@H](CCC(=O)O)NC(=O)[C@H](CCC(=O)O)NC(=O)[C@H](CCC(=O)O)NC(=O)CNC(=O)[C@H](CCC(=O)O)NC(=O)[C@H](CC(C)C)NC(=O)[C@H](CC(C)C)NC(=O)[C@@H](N)CCCCN)C(=O)O [compound 40]
Alleles bound [1]: 2

CC(C)C[C@H](NC(=O)[C@H](C)NC(=O)[C@H](CCCNC(=N)N)NC(=O)[C@H](CC(C)C)NC(=O)CNC(=O)[C@H](Cc1c[nH]cn1)NC(=O)[C@H](CCCCN)NC(=O)[C@@H](NC(=O)[C@H](CC(C)C)NC(=O)[C@@H](N)CCC(=O)O)C(C)C)C(=O)O [ELVKHGLRAL]
Alleles bound [4]: 3

CC[C@H](C)[C@H](NC(=O)[C@@H](NC(=O)[C@@H](NC(=O)[C@@H](NC(=O)[C@H](CCC(N)=O)NC(=O)CNC(=O)[C@H](CC(=O)O)NC(=O)[C@@H]1CCCN1C(=O)[C@H](CC(C)C)NC(=O)[C@@H](N)CCC(=O)O)C(C)C)[C@@H](C)CC)[C@@H](C)O)C(=O)O [compound 10]
Alleles bound: 2

CC[C@H](C)[C@H](NC(=O)[C@H](CC(N)=O)NC(=O)[C@H](CCCCN)NC(=O)CNC(=O)[C@H](CC(N)=O)NC(=O)[C@H](CC(C)C)NC(=O)[C@@H](N)CCC(=O)O)C(=O)N[C@@H](CCC(=O)O)C(=O)N[C@@H](CC(=O)O)C(=O)N[C@H](C(=O)O)C(C)C
Alleles bound [4]: 3

CC(C)C[C@H](NC(=O)[C@H](CC(N)=O)NC(=O)[C@H](CC(C)C)NC(=O)[C@H](CO)NC(=O)[C@H](CO)NC(=O)[C@H](Cc1ccccc1)NC(=O)[C@H](CC(N)=O)NC(=O)[C@@H]1CCCN1C(=O)[C@H](CC(C)C)NC(=O)[C@@H]1CCCN1)C(=O)O [compound 227]
Alleles bound (Table 8, peptides derived from fragmented proteins, number of the five HLA-A2 alleles bound): 1

Source: patent EP2710378B1, “METHOD TO PROGNOSE VIRAL INFECTION BY MEASURING T CELL RESPONSE OR AUTO-ANTIBODIES TO APOPTOTIC EPITOPES” (Università degli Studi di Roma "La Sapienza", priority 2011, dated 2012)
